The target in this assay is N-lysine methyltransferase SMYD2 (Homo sapiens, UniProt Q9NRG4). The assay is described as follows: Inhibition of N-terminal 2xc-myc-tagged SMYD2 (unknown origin) transfected in KYSE-150 cells assessed as methylation activity by Western blot analysis. The class given is cell-based, KYSE-150 cell line. Background: In western blotting, separated proteins are transferred to a membrane and probed.

Protein sequences, listed by entry. Tags and fused reporters are not part of them. Lines headed by an entry give the natural chain unless they say otherwise; changes in a name come on top.
UniProt Q9NRG4: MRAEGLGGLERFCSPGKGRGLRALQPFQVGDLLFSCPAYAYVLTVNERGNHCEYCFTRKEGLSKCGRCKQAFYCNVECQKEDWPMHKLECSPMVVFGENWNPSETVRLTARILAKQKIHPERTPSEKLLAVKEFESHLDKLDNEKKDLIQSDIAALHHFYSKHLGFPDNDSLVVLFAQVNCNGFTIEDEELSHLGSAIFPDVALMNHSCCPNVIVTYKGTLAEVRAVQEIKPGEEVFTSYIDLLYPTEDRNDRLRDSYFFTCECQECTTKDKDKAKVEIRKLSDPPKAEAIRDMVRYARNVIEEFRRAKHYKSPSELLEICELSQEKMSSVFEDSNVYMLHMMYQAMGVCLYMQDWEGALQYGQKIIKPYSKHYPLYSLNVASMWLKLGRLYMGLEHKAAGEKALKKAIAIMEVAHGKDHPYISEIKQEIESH

Each structure is given as a SMILES string.

In general, IC50 refers to the concentration that gives 50% inhibition. On to `CCN(C(=O)CO)[C@H]1CN(/C(=N\C#N)Nc2cccc(OC(F)F)c2)N=C1c1ccc(Cl)c(Cl)c1`, for which the IC50 came out at 58 nM.

These data come from ChEMBL document CHEMBL5674880 (PLoS One, 2018).
